The values below come from ChEMBL document CHEMBL1142791, “Design, synthesis, and evaluation of 2-phenoxy-indan-1-one derivatives as acetylcholinesterase inhibitors” (Bioorg Med Chem Lett, 2005).

The test concerns the target T1, Acetylcholinesterase (Rattus norvegicus, UniProt P37136).
T1 sequence (P37136 whole entry): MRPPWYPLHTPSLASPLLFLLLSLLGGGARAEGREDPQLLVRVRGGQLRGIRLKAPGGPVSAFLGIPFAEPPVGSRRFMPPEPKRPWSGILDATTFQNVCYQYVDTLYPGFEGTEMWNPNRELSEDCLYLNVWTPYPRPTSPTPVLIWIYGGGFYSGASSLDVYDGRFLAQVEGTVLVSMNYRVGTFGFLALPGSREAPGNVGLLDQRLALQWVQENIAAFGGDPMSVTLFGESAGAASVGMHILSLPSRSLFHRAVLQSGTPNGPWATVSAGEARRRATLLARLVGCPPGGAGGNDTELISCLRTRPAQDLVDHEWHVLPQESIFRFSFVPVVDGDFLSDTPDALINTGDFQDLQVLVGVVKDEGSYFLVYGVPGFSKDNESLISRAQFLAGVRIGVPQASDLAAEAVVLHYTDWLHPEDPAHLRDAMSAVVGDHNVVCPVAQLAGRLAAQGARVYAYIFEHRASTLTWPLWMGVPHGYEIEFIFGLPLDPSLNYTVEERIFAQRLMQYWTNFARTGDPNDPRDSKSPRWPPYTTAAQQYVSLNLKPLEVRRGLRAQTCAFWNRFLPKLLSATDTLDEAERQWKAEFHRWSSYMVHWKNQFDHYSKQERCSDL
As a reminder, the IC50 is the concentration that inhibits the measured activity by half. The low end stands for inhibition by little substance, the high end for a need for much substance. As for `COc1cc2c(cc1OC)C(=O)C(Oc1ccc(C(C)N(C)C)cc1)C2` (centres undefined), the half-maximal inhibitory concentration (IC50) was 0.15 µM.

In turn, `COc1cc2c(cc1OC)C(=O)C(Oc1cccc(CN(C)C)c1)C2` (centres undefined) showed a half-maximal inhibitory concentration (IC50) of 1.1 µM.

`COc1cc2c(cc1OC)C(=O)C(Oc1cccc(C(C)N3CCOCC3)c1)C2` (centres undefined) had an IC50 of 22.1 µM.

Turning to `COc1cc2c(cc1OC)C(=O)C(Oc1cccc(CN3CCOCC3)c1)C2` (centres undefined), half-maximal inhibition (IC50) was put at 14.6 µM.
